# Only a part is listed here, and it is no random draw. Records with an inconclusive call do not appear. Some salts or complexes appear as unconnected parts, following the source record. Active and inactive are the calls of the source. Calls come from the whole dose curve; as a rule, active = well fitted inhibition curve with a large enough effect; inconclusive = small, poorly fitted or top-dose-only effect, or effect the other way; inactive = flat fitted curve, though single readings scatter.
# By UniProt entry, the sequences of proteins in these tests, tags left out. Residues count along the entry.
# UniProt P10636, 561-689 P618L limits assumed: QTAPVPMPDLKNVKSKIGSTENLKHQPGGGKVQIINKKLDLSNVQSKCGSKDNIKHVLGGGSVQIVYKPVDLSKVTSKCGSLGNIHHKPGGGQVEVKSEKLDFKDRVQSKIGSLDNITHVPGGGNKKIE
# Target: Microtubule-associated protein tau (Homo sapiens) (UniProt P10636)
# Assay: qHTS for Inhibitors of Tau Fibril Formation, Fluorescence Polarization; note: nearly all actives have a fitted effect of over 55% in size
# Settings: K18 P301L tau heparin fibrillization, Alexa594 FP, 6 h; at 57.7 µM (top of the series)
# Description: NIH Molecular Libraries Probe Production Network [MLPCN]
# NIH Chemical Genomics Center [NCGC]
# Assay Provider: Carlo Ballatore, University of Pennsylvania
# The microtubule-associated protein tau is an abundant protein in the axons of neurons that stabilizes microtubules. With its ability to modulate microtubule dynamics, tau contributes directly or indirectly, to key structural and regulatory cellular functions. Particularly important is the influence tau exerts on axonal transport, which allows signaling molecules, trophic factors and other essential cellular constituents to travel along the axons. Under pathological conditions, tau becomes sequestered into insoluble aggregates called neurofibrillary tangles. This phenomenon is believed to have pathological consequences by promoting axonal transport deficits that ultimately lead to synaptic dysfunction and neuronal loss. To identify inhibitors of tau aggregation, a heparin-induced tau fibril formation assay was used that employed a recombinantly expressed fragment of tau, K18 (Q242-E372), bearing a P301L mutation (Gustke et al. 1994; Hong et al. 1998).
# Gustke, N., B. Trinczek, et al. (1994). "Domains of tau protein and interactions with microtubules." Biochemistry 33(32): 9511-22.
# Hong, M., V. Zhukareva, et al. (1998).
# Li, W. and V. M. Lee (2006). "Characterization of two VQIXXK motifs for tau fibrillization in vitro." Biochemistry 45(51): 15692-701.
# von Bergen, M., S. Barghorn, et al. (2001). "Mutations of tau protein in frontotemporal dementia promote aggregation of paired helical filaments by enhancing local beta-structure." J Biol Chem 276(51): 48165-74.
# NCGC Assay Protocol Summary:
# For screening, 2 uL/well human K18 P301L (15 uM unlabeled and 0.24 uM Alexa 594-labeled tau final concentrations) in reagent buffer (100 mM sodium acetate pH 7) was dispensed into black solid 1536-well plates (Grenier) using a solenoid-based dispenser. Following transfer of 23 nL compound or DMSO vehicle by a pin tool, 2 uL/well heparin (20 uM final concentration) in reagent buffer was added and the plate centrifuged 15 s at 1000 RPM. Plates were incubated 6 hr at 37 C and then 1 uL/well ThT (30 uM final concentration) was added. After a 1 hr ambient incubation, the plates were read by an Envision (Perkin Elmer) to monitor Alexa 594 FP (555 nm excitation and 632 nm emission).
# Keywords: NIH Roadmap, MLPCN, MLI, MLSMR, NCGC, qHTS, tau, tauopathies, Alzheimer's disease, fibril, neurodegeneration, aggregation
# % is set by controls: 0 for no effect and ±100 for the full control effect.
row,SMILES,"activity, negative = inhibition"
1,COc1ccc(NC2CCN(CCc3ccccc3)CC2)c(OC)c1,inactive: -7.3%
2,COc1ccccc1C(=O)NCC1(N2CCOCC2)CCCCC1,inactive: -1.27%
3,O=C(NCC1(N2CCOCC2)CCCCC1)c1ccc(Cl)cc1,inactive: 3.57%
4,Cc1ccc(OCC(C)C)c(CN(CCCl)CCCl)c1,inactive: -7.25%
5,COc1ccc(C(=O)NCC2(N3CCCCC3)CCCCC2)c(OC)c1OC,inactive: 0.805%
6,CCOC(=O)N1CCC(Nc2ccc(OC)cc2)CC1,inactive: 3.9%
7,O=C(OC1CN2CCC1CC2)C1c2ccccc2Oc2ccccc21 (stereo not given),inactive: -2.78%
8,N#CC1(Nc2ccccc2)CCN(Cc2ccccc2)CC1,inactive: -14.2%
9,O=C(NCC1(N2CCOCC2)CCCCC1)c1cc2ccccc2o1,inactive: 2.72%
10,COc1ccc(CN(CCCl)CCCl)cc1Cl,inactive: 4.77%
11,CN(C)c1cccc(C(=O)NCC2(N3CCCCC3)CCCCC2)c1,inactive: -2.25%
12,CCCCOc1ccccc1C(=O)NCC1(N2CCOCC2)CCCCC1,inactive: -3.64%
13,O=C(NCC1(N2CCOCC2)CCCCC1)c1ccccc1Br,inactive: 1.27%
14,COc1ccc2c(c1O)-c1c(O)c(OC)cc3c1[C@H](C2)[N+](C)(C)CC3.O=[N+]([O-])c1cc([N+](=O)[O-])c([O-])c([N+](=O)[O-])c1[O-],inactive: -5.54%
15,O=C(OC1CN2CCC1CC2)c1ccc([N+](=O)[O-])cc1 (stereo not given),inactive: -1.21%
16,CCOc1ccc(C(=O)NCC2(N3CCOCC3)CCCCC2)cc1,inactive: 2.89%
17,O=C(NCC1(N2CCCCC2)CCCCC1)c1cccc([N+](=O)[O-])c1,inactive: -3.48%
18,N#CC1(Nc2ccccc2)CCN(CCc2ccccc2)CC1,inactive: 2.15%
19,COc1ccc(NC2CCN(C(=O)OC(C)(C)C)CC2)cc1,inactive: 8.41%
20,CN1CCN(CCOC(=O)C(O)(c2ccccc2)c2ccccc2)CC1,inactive: 0.934%
21,O=C(NCC1(N2CCOCC2)CCCCC1)c1cc(=O)[nH]c2ccccc12,inactive: -6.57%
22,CCCOc1cccc(C(=O)NCC2(N3CCOCC3)CCCCC2)c1,inactive: -2.03%
23,O=[N+]([O-])c1cc([N+](=O)[O-])c(NCC2CCS(=O)(=O)C2)c([N+](=O)[O-])c1 (stereo not given),inactive: 1.98%

row,SMILES,"activity, negative = inhibition"
1,CCOC(=O)C(CC)C1=NC(C)(C)Cc2ccccc21.O=[N+]([O-])c1cc([N+](=O)[O-])c(O)c([N+](=O)[O-])c1 (stereo not given),inactive: 4.47%
2,O=C(NCC1(N2CCOCC2)CCCCC1)c1ccc([N+](=O)[O-])cc1,inactive: -1.53%
3,O=C(NCC1(N2CCOCC2)CCCCC1)c1ccccc1[N+](=O)[O-],inactive: -5.86%
4,N#Cc1ccc(C(=O)NCC2(N3CCCCC3)CCCCC2)cc1,inactive: 6.37%
5,c1ccc(CN2CCC(Nc3ccccc3)CC2)cc1,inactive: 5.22%
6,O=C(NCC1(N2CCOCC2)CCCCC1)c1ccccc1,inactive: 3.24%
7,COc1ccc(C(=O)NCC2(N3CCOCC3)CCCCC2)cc1OC,inactive: 7.53%
8,O=C(OC1CN2CCC1CC2)C1c2ccccc2C=Cc2ccccc21 (stereo not given),inactive: 5.94%
9,O=C(O)c1cccc(Nc2c([N+](=O)[O-])cc([N+](=O)[O-])cc2[N+](=O)[O-])c1,inactive: 4.81%
10,N/C(=N\O)c1c(N)no[n+]1[O-],inactive: -0.243%
11,CC(C)(C)OC(=O)N1CCC(Nc2ccccc2)CC1,inactive: 2.78%
12,CCOc1ncccc1C(=O)NCC1(N2CCOCC2)CCCCC1,inactive: 3.59%
13,CCCOc1ccc(C)cc1CN(CCCl)CCCl,inactive: -5.46%
14,CCC(CO)(C(=O)OC1CN2CCC1CC2)c1ccccc1 (stereo not given),inactive: -2.82%
15,COc1cc(OC)cc(C(=O)NCC2(N3CCOCC3)CCCCC2)c1,inactive: 4.68%
16,COc1cc(C(=O)NCC2(N3CCOCC3)CCCCC2)cc(OC)c1OC,inactive: 8.26%
17,Fc1ccccc1NC1CCN(Cc2ccccc2)CC1,inactive: 7.13%
18,CN(C)C1(CNC(=O)c2ccc(C(C)(C)C)cc2)CCCCC1,inactive: -2.43%
19,CC(C)(C)c1ccc(C(=O)NCC2(N3CCOCC3)CCCCC2)cc1,inactive: 1.25%
20,CN(C)c1ccc(C(=O)NCC2(N3CCCCC3)CCCCC2)cc1,inactive: 16.9%
21,Cc1ccccc1C(=O)NCC1(N(C)C)CCCCC1,inactive: 3.97%
22,CCN1CCC(Nc2cccc(F)c2)CC1,inactive: -14.5%

# Source: PubChem BioAssay AID1468 (National Center for Advancing Translational Sciences (NCATS), 2008)
